Laboratory results reported in publication PMC12797171, “Preclinical Evaluation of a ^177Lu-Labeled Gastrin-Releasing Peptide Receptor Antagonist and Prostate Cancer Treatment with Monotherapy and in Combination with Everolimus” (ACS Pharmacology & Translational Science, 2025).

Sequences of proteins named here, by UniProt entry; tags and fusion partners are left off. A change or cut given only in a name is not applied to a line headed by its entry.
UniProt P30550: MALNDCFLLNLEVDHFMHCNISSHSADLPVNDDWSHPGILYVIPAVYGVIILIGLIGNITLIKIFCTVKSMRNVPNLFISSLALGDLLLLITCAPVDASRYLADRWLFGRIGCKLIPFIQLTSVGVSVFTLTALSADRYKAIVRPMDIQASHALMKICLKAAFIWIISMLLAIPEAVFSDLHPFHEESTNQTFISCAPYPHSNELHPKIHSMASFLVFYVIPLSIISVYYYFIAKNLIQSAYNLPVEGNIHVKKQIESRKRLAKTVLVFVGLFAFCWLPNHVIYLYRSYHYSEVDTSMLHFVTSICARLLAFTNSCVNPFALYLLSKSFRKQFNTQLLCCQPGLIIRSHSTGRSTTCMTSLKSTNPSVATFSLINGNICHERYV

What was measured:
[1] = mouse, in vivo
Description: The quality control of the radiolabeling mixture was performed by radio thin-layer chromatography (TLC) and High-Performance Liquid Chromatography (HPLC) analysis, as described with details in the supplementary data. For the radiolabeling procedures involving high levels of radioactivity, ascorbic acid was added to the [177Lu]Lu-LF1 radiolabeling mixture immediately after completion of the radiolabeling, to a final concentration of 20 µg/µL, in order to prevent autoradiolysis. […] Cells were suspended in 4-5 mL of complete medium and seeded in one part of a 10 cm plastic petri dish, while keeping the dish in an angle. The day of the experiment, supernatant was aspirated and the dish was washed gently with 4 mL of media and the liquid was removed by aspiration. Next, 8-10 mL of complete media were introduced and the dish with the cells was left to incubate at 37 °C for 0.5-1 h. Then, the medium was removed and the cells were placed in the holder of a LigandTracer White or Grey (Ridgeview Instruments AB, Uppsala, Sweden). […] After careful separation of the two phases (precipitated proteins and supernatant), the respective activities were measured in a γ-counter to determine the percentage of the radiotracer S4

[2] = biological target: T1, gastrin-releasing peptide receptor (GRPR) (Homo sapiens, UniProt P30550); assay: LigandTracer real-time binding affinity and kinetics in PC-3 cells
T1 construct: host or cells: PC-3 (human prostate adenocarcinoma) cells
Description: For [^177Lu]-Lu-LF1 and ligand–receptor interaction kinetics, 3 × 10^6 PC-3 cells were seeded (supplementary data, Table S5). The association measurements were initiated with [^177Lu]-Lu-LF1 at a final concentration of 1 nM. […] At that point, the radioligand-containing medium was replaced with fresh complete medium to initiate the dissociation phase. All measurements were performed in triplicate. […] page 4: within 10 min at room temperature (r.t.). The quality control of the radiolabeling mixture was performed by radio thin-layer chromatography (TLC) and High-Performance Liquid Chromatography (HPLC) analysis, as described with details in the supplementary data. For the radiolabeling procedures involving high levels of radioactivity, ascorbic acid was added to the [177Lu]Lu-LF1 radiolabeling mixture immediately after completion of the radiolabeling, to a final concentration of 20 µg/µL, in order to prevent autoradiolysis. […] Cells were suspended in 4-5 mL of complete medium and seeded in one part of a 10 cm plastic petri dish, while keeping the dish in an angle. The day of the experiment, supernatant was aspirated and the dish was washed gently with 4 mL of media and the liquid was removed by aspiration. Next, 8-10 mL of complete media were introduced and the dish with the cells was left to incubate at 37 °C for 0.5-1 h. Then, the medium was removed and the cells were placed in the holder of a LigandTracer White or Grey (Ridgeview Instruments AB, Uppsala, Sweden). New media (3 mL) were introduced and background measurements were conducted for approximately 20-30 min, then the measurements of the kinetics were performed as stated in the “Materials and Methods” section of the manuscript. […] Blood was immediately transferred to pre-chilled heparinized tubes and centrifuged (5 min, 1700 g, 4 °C) for plasma isolation. […] After careful separation of the two phases (precipitated proteins and supernatant), the respective activities were measured in a γ-counter to determine the percentage of the radiotracer S4

PC-3 tumors = assay: Biodistribution in PC-3 tumor-bearing mice; assay type: in vivo, mouse
Description: Male athymic Balb/C nude mice (6 weeks old, 20–25 g; RRID:IMSR_JAX:002019) were subcutaneously implanted with PC-3 cells (3 × 10^6 in 100 μL PBS) into the right shoulder. Once tumors reached 250–300 mm^3 (18–20 days postimplantation), mice were used for biodistribution and SPECT/CT imaging. For all studies, mice were randomly grouped to ensure similar tumor size distribution. All procedures were approved by local authorities and conducted in accordance with institutional guidelines (license BE63/2021; 33892).
At 1, 4, 24, 48, 72, 96, and 144 h postinjection, animals were euthanized with an overdose of pentobarbital sodium (150 mg/kg i.p.). Selected organs were collected, weighed, and measured for radioactivity using a γ-counter. Biodistribution is expressed as % injected activity per gram (% IA/g, mean ± SD; n = 3–4). For specificity assessment, blocking studies (n = 3) were conducted by coinjecting [^177Lu]-Lu-LF1 with 20 nmol of H-D-Phe-Gln-Trp-Ala-Val-Gly-His-Sta-Leu-NH2; biodistribution was assessed at 4 h p.i..

[3] = Area under the time-activity curves (AUC); settings: mouse, in vivo
Description: The area under the time-activity curves (AUC) in the tumor, blood, pancreas and kidneys were calculated from the noncorrected biodistribution data using GraphPad Prism. The results of AUC are expressed as % IA/g × h and presented as mean values ± SD (n = 3) (supplementary data: Table S7).

## [177Lu]Lu-LF1: GRPR antagonist LF1 (AAZTA^5-Pip-D-Phe-Gln-Trp-Ala-Val-Gly-His-Sta-Leu-NH2) radiolabeled with lutetium-177 (FQWAVGH; AAZTA5-Pip, Sta-Leu-NH2, 177Lu; printed: Phe-Gln-Trp-Ala-Val-Gly-His-)
[1]
  activity bound to murine plasma proteins: 3.2%
[2]
  association rate constant (Kon): 2.5 × 10^5 ± 0.2 × 10^5 M^–1s^–1
  dissociation rate constant (Koff): 3.2 × 10^–5 ± 0.1 × 10^–5 s^–1
[2]; 1-1 interaction model
  Kd: 100 pM
PC-3 tumors; 1 h p.i.
  tumor/kidney ratio: 5.9 ± 0.3
PC-3 tumors; 4 h p.i.
  tumor/kidney ratio: 8.8 ± 0.8
PC-3 tumors; 24 h p.i.
  tumor/kidney ratio: 10 ± 1.0
PC-3 tumors; 48 h p.i.
  tumor/kidney ratio: 11 ± 1.8
PC-3 tumors; 72 h p.i.
  tumor/kidney ratio: 9.9 ± 1.8
PC-3 tumors; 96 h p.i.
  tumor/kidney ratio: 6.1 ± 0.0
PC-3 tumors; 144 h p.i.
  tumor/kidney ratio: 4.9 ± 0.2
PC-3 tumors; mouse, in vivo
  Tumor-to-pancreas ratio: > 20
[3]
  Blood, individual mice: 0.12 %IA/g
  tumor AUC relative to pancreas or kidneys: about 5 times
